# Measured values as given in PubChem BioAssay AID686940 (The Scripps Research Institute Molecular Screening Center, 2013).
# Sequences of proteins named here, by UniProt entry; tags and fusion partners are left off.
# UniProt P24468, whole entry: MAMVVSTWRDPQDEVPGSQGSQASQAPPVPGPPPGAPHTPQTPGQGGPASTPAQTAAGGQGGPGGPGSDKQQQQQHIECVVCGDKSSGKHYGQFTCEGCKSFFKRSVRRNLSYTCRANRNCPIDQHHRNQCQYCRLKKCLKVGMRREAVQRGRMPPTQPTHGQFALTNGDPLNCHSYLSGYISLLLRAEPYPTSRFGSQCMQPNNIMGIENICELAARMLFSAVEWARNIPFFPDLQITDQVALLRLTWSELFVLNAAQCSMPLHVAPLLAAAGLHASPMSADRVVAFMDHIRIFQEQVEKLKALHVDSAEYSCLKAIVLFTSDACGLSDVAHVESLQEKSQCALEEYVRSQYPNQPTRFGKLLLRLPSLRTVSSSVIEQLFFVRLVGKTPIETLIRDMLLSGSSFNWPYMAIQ
# This is a selection; strong and weak results do not stand in their true shares. Some salts and complexes are drawn in separate pieces, as the source files them; their charges need not balance. Activity calls are given as the source filed them.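 The calls were made as follows: active = inhibition above a per-plate cutoff, mean inhibition of test wells between control levels plus 3 SD (cut at about 38% in these data); inactive = the rest.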
# Target: COUP transcription factor 2 (Homo sapiens) (UniProt P24468)
# Assay: COUP-TFII reporter suppression in human cells – cell-based, luciferase reporter, HEK293T, luminescence, primary screen (AID 686940);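 also: cells cotransfected with COUP-TFII expression vector driving the NGFI-A reporter; 0% = median of COUP-TF2 test wells and 100% = reporter-only cells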
# Details: HEK293T NGFI-A luciferase reporter, at 8.6 µM, hits give high values
row,Compound,inhibition
1,Cc1c(C(c2ccc3c(c2)OCO3)c2c(C)n(C)n(-c3ccccc3)c2=O)c(=O)n(-c2ccccc2)n1C.O=[N+]([O-])c1cc([N+](=O)[O-])c(O)c([N+](=O)[O-])c1,inactive: 12.1%
2,Cc1cc(-c2cccc3ccccc23)c(C)cn1.O=[N+]([O-])c1cc([N+](=O)[O-])c(O)c([N+](=O)[O-])c1,inactive: -7.27%
3,O=[N+]([O-])c1cc([N+](=O)[O-])c(NCC2CCS(=O)(=O)C2)c([N+](=O)[O-])c1 (centres undefined),inactive: 8.48%
4,O=[N+]([O-])c1ccc(OP2(=O)COCCO2)cc1 (centres undefined),inactive: 7.19%
5,COc1ccc(NP(C)(=O)Oc2ccccc2OC)cc1 (centres undefined),inactive: -18.7%
6,CN(C)CCOC(=O)C(O)(c1ccccc1)C1CCCCC1 (centres undefined),inactive: -10.7%
7,COc1ccc(OP(C)(=O)Nc2cccc(Br)c2)cc1 (centres undefined),inactive: 0.05%
8,O=[N+]([O-])c1cc([N+](=O)[O-])c(C(F)(F)F)c([N+](=O)[O-])c1O,inactive: -18.4%
9,Cc1ccccc1NP(C)(=O)Nc1ccccc1C,inactive: 16.8%
10,CP(=O)(Nc1ccc2c(c1)OCCO2)Oc1ccccc1 (centres undefined),inactive: 4.79%
11,CCOP(=O)(CC)OCC,inactive: -23.1%
12,CCOP(C)(=S)SCC(=O)NC(C)(CC)C(=O)O (centres undefined),inactive: 4.94%
13,CP(=O)(Nc1ccc(SC(F)(F)F)cc1)Oc1ccc(F)cc1 (centres undefined),inactive: 9.02%
14,COc1ccc2c(c1O)-c1c(O)c(OC)cc3c1[C@H](C2)[N+](C)(C)CC3.O=[N+]([O-])c1cc([N+](=O)[O-])c([O-])c([N+](=O)[O-])c1[O-],inactive: -2.66%
15,O=C(OCCN1CCN(CCOCc2ccccc2)CC1)C(O)(c1ccccc1)c1ccccc1,inactive: -5.37%
16,O=C(OC1CN2CCC1CC2)c1ccc([N+](=O)[O-])cc1 (centres undefined),inactive: -4.54%
17,CC(C)c1ccc(OP(C)(=O)Nc2ccc(SC(F)(F)F)cc2)cc1 (centres undefined),inactive: 7.73%
18,CP(=O)(Nc1ccccc1F)Oc1ccccc1 (centres undefined),inactive: 37.3%
19,O=[N+]([O-])c1cc([N+](=O)[O-])c(Nc2ccc(Cl)cc2)c([N+](=O)[O-])c1,active: 57.3%
20,CCCCCOc1ccc(NP(C)(=O)Oc2ccc(Cl)cc2Cl)cc1 (centres undefined),inactive: -10.1%

row,Compound,inhibition
1,O=[N+]([O-])c1cc([N+](=O)[O-])c(OC2CCCCC2O)c([N+](=O)[O-])c1 (centres undefined),inactive: -5.55%
2,CP(=O)(Nc1ccccc1)Oc1ccc(F)cc1 (centres undefined),inactive: 4.72%
3,CCN(CC)CCCOC(=O)C(O)(c1ccccc1)C1CCCCC1 (centres undefined),inactive: 9.75%
4,Cc1c([N+](=O)[O-])cc([N+](=O)[O-])c(Br)c1[N+](=O)[O-],inactive: 15.7%
5,COc1ccc(OP(C)(=O)Nc2ccc(SC(F)(F)F)cc2)cc1 (centres undefined),inactive: 10.2%
6,CCOC(=O)c1ccc(NP(C)(=O)Oc2ccc(F)cc2)cc1 (centres undefined),inactive: -11.4%
7,CCN(CC)CCCNc1ccccc1[N+](=O)[O-].O=[N+]([O-])c1cc([N+](=O)[O-])c(O)c([N+](=O)[O-])c1,inactive: 7.49%
8,CCCCCCCCCCCCCCCC1C[N+](C)(C)CCOP(C)(=O)O1 (centres undefined),inactive: -10%
9,CP(=O)(Nc1ccc(Cl)cc1Cl)Oc1ccccc1 (centres undefined),inactive: 1.28%
10,CP(=O)(OCCOc1ccccc1)OCCOc1ccccc1,inactive: 10.1%
11,COc1ccc(OP(C)(=O)Nc2ccccc2Br)cc1 (centres undefined),inactive: 1.44%
12,COc1ccccc1OP(C)(=O)Nc1ccc(C)c(C)c1 (centres undefined),inactive: 10.6%
13,Cc1cc(C)cc(OP(C)(=O)Nc2cccc(C(F)(F)F)c2)c1 (centres undefined),inactive: 4.93%
14,O=C1C(O)=C([N+](=O)[O-])C(=O)C(O)=C1[N+](=O)[O-],inactive: -7.92%
15,CCc1ccc(OP(C)(=O)O)cc1,inactive: -2.9%
16,COc1ccccc1OP(C)(=O)Nc1ccc(C)cc1C (centres undefined),inactive: 1.4%
17,CP(=O)(Nc1ccccn1)Oc1ccccc1 (centres undefined),inactive: -0.42%
18,Cc1c(NP(C)(=O)Oc2ccc(C(C)C)cc2)c(=O)n(-c2ccccc2)n1C (centres undefined),inactive: -3.19%
19,O=[N+]([O-])c1cc([N+](=O)[O-])c(Nc2ccccn2)c([N+](=O)[O-])c1,inactive: 5.03%
20,CN(C)CCOC(=O)C(O)(c1ccccc1)C1CCCC1 (centres undefined),inactive: -3.57%

row,Compound,inhibition
1,COc1ccc(OP(C)(=O)Nc2ccccn2)cc1 (centres undefined),inactive: -3.24%
2,COc1ccccc1OP(C)(=O)Nc1ccc(Br)cc1 (centres undefined),inactive: 0.38%
3,CN(C)C(=O)c1c([N+](=O)[O-])cc([N+](=O)[O-])cc1[N+](=O)[O-],inactive: 11.8%
4,CP(=O)(Nc1ccc(Cl)cc1)Oc1ccc(F)cc1 (centres undefined),inactive: -6.52%
5,COc1ccccc1OP(C)(=O)Nc1ccccc1Br (centres undefined),inactive: -3.05%
6,CC(C)(C)c1ccc(OP(C)(=O)O)cc1,inactive: -2.82%
7,CCc1ccc(OP(C)(=O)Nc2cccnc2)cc1 (centres undefined),inactive: 4.35%
8,CP(=O)(Oc1ccccc1)N1CCOC1=O (centres undefined),inactive: -0.05%
9,O=C(OCCCN1CCCC1)C(O)(c1ccccc1)C1CCCCC1 (centres undefined),inactive: -14.9%
10,COc1ccccc1OP(C)(=O)Nc1c(C)n(C)n(-c2ccccc2)c1=O (centres undefined),inactive: 15.1%
11,COc1ccc(OP(C)(=O)Nc2ccc(Br)cc2)cc1 (centres undefined),inactive: 8.64%
12,CCN(CC)CC(O)COC(=O)C(O)(c1ccccc1)C1CCCCC1 (centres undefined),inactive: 5.59%
13,CP(=O)(OC12CC3CC(CC(C3)C1)C2)OC12CC3CC(CC(C3)C1)C2,inactive: -8.76%
14,CCOC(=O)c1ccc(NP(C)(=O)Oc2ccc(Cl)cc2)cc1 (centres undefined),inactive: 0.26%
15,Nc1ccc2c(ccc3cccnc32)n1.O=[N+]([O-])c1cc([N+](=O)[O-])c(O)c([N+](=O)[O-])c1,inactive: -4.68%
16,COc1ccccc1OP(C)(=O)Nc1ccccc1 (centres undefined),inactive: 13.2%
17,CP(=O)(Nc1ccccc1Br)Oc1ccccc1 (centres undefined),inactive: 0.99%
18,CP(=S)(Nn1cnnc1)Oc1ccccc1 (centres undefined),inactive: 3.21%
19,CP(=O)(Nc1ccccn1)Oc1ccc(Cl)cc1 (centres undefined),inactive: -10.7%
